High-throughput results: PubChem BioAssay, National Center for Advancing Translational Sciences (NCATS)
TDP1 cell CPT: DT40-hTDP1 cell growth loss with CPT; chicken DT40 Tdp1-/-;hTDP1 cells + 20 nM CPT, ATP luminescence, 48 h; Potency, µM (top dose mostly 46.2 µM), inactives show at the top dose activity change, negative = growth inhibition, hits mostly inhibitors; 420,000 compounds, 12% hits; AID 686979; note: potency is the fitted concentration of half-maximal effect; % is set by controls: 0 for no effect and ±100 for the full control effect; nearly all actives have a fitted effect of over 55% in size
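Cell growth measured by CellTiter-Glo luminescence after a minimum 48 h, 37 C compound exposure with 20 nM CPT in Tdp1-knockout DT40 cells stably expressing hTDP1, seeded 400/well; qHTS titration format.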
DT40 TDP1 no CPT: qHTS for Inhibitors of human tyrosyl-DNA phosphodiesterase 1 (TDP1): qHTS in cells in absence of CPT | DT40 Tdp1-/- hTDP1 cells, no CPT, ATP luminescence, 48 h | Potency, µM (series often up to 46.2 µM), for the others: at the top dose activity change, negative = growth inhibition, most hits filed as inhibitors | 420,000 compounds, 15% hits | AID 686978, 2013; note: potency is the fitted concentration of half-maximal effect; % is set by controls: 0 for no effect and ±100 for the full control effect; nearly all actives have a fitted effect of over 55% in size
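Camptothecin absent (DMSO only). Human TDP1-complemented DT40 knockout cells, 400 cells/well, 37 °C for minimum 48 hr; ATP measured via CellTiter-Glo, 30 min dark incubation, luminescence.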
miR-21 FLuc: miR-21 reporter, rising signal; HeLa miR-21 FLuc reporter, luciferase, 48 h; Potency, µM (titrated, usually from 38.3 µM), without a hit: top-dose reporter change, positive = more light; AID 2288; 340,000 tested, under 10 active; active = well fitted rising curve with a large enough effect; inconclusive = small, poorly fitted or top-dose-only effect; inactive = no such curve, though single readings can be large or run the other way;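 further: % of control where 0% means no effect; miR-21 action dims this reporter so a rising signal means less miR-21 action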
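HeLa miR-21-FLuc reporter line, endogenous miR-21; 2000 cells/well in DMEM/10% FBS; compound titration up to ~40uM final, 48 h, 37 degree Celsius; luciferase detection reagent, 15 min lysis, CCD luminescence.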
uPA surface inh: cell surface uPA generation inhibition; cell surface uPA generation assay, qHTS; 330,000 compounds, 0.31% hits; Potency, µM (highest dose often 38.3 µM), for the others: top-dose activity change, negative = inhibition, actives largely listed as inhibitors; active = well fitted inhibition curve with a large enough effect; inconclusive = small, poorly fitted or top-dose-only effect; inactive = no such curve, though single readings can be large or run the other way; tested in mouse RAW 264.7 cells; note: potency is the fitted concentration of half-maximal effect; % is set by controls: 0 for no effect and ±100 for the full control effect; nearly all actives have a fitted effect of over 55% in size
TDP1 block: blocks human tyrosyl-DNA phosphodiesterase 1; Q9NUW8; recombinant TDP1, AlphaScreen DNA substrate cleavage; Potency, µM (doses to about 130 µM), without a hit: at the highest dose activity change, negative = inhibition, usual class: inhibitors; 350,000 compounds, 0.28% hits; note: potency is the fitted concentration of half-maximal effect; % is set by controls: 0 for no effect and ±100 for the full control effect; nearly all actives have a fitted effect of over 40% in size
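Enzyme-compound mixtures sat 15 min at room temperature, followed by a 5 min reaction with 15 nM final substrate and 10 min with AlphaScreen beads. Recombinant human Tdp1 was used at 1 nM final.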
The depositor's hits bear a star. Only some compounds are listed: those with a hit (about 16% of all), similar ones and a draw of the others. Unless noted, calls come from the whole dose curve; as a rule, active = well fitted curve in the direction sought with a large enough effect; inconclusive = small, poorly fitted or top-dose-only effect, or another doubt; inactive = no such curve, though single readings can be large; an effect the other way counts as inactive or inconclusive.

The opening 2 records as a preview:
`COc1cccc(CC2(CO)CCCN(Cc3cc(F)ccc3-n3cccn3)C2)c1` (configuration not stated) gave TDP1 cell CPT inconclusive, DT40 TDP1 no CPT inconclusive, miR-21 FLuc -1%, uPA surface inh -2% and TDP1 block 0%.
CCOc1ccc2nc(SCC(=O)NC3CC3)sc2c1 was read as TDP1 cell CPT -18%, DT40 TDP1 no CPT -19%, miR-21 FLuc -22%, uPA surface inh -24% and TDP1 block 0%.

Main list (from the top)
`COc1cccc(CC2(CO)CCCN(Cc3cc(F)ccc3-n3cccn3)C2)c1` (configuration not stated) gave TDP1 cell CPT inconclusive, DT40 TDP1 no CPT inconclusive, miR-21 FLuc -1%, uPA surface inh -2% and TDP1 block 0%.
CCOc1ccc2nc(SCC(=O)NC3CC3)sc2c1 was read as TDP1 cell CPT -18%, DT40 TDP1 no CPT -19%, miR-21 FLuc -22%, uPA surface inh -24% and TDP1 block 0%.
`CCOc1ccc2nc(SCCNS(=O)(=O)c3ccccc3)sc2c1` gave TDP1 cell CPT -28%, DT40 TDP1 no CPT 16µM*, miR-21 FLuc -1%, uPA surface inh 6% and TDP1 block -3%.
For CCOc1ccc2nc(SC3CC(=O)N(c4cccc(OC)c4)C3=O)sc2c1 (configuration not stated) the results were TDP1 cell CPT 3.3µM*, DT40 TDP1 no CPT 3.7µM*, miR-21 FLuc -17%, uPA surface inh -3% and TDP1 block 3%.
For CCOc1ccc2nc(SC3CC(=O)N(c4ccccc4)C3=O)sc2c1 (configuration not stated) the results were TDP1 cell CPT 2.9µM*, DT40 TDP1 no CPT 3.7µM*, miR-21 FLuc -29%, uPA surface inh -5% and TDP1 block -4%.
`CCOc1ccc2nc(SCC(=O)c3ccccc3)sc2c1` gave TDP1 cell CPT -12%, DT40 TDP1 no CPT inconclusive, miR-21 FLuc -56%, uPA surface inh 4% and TDP1 block -12%.
`Cc1cc(C)n2nc(C(=O)N/N=C/c3cn(C)nc3C)nc2n1` gave TDP1 cell CPT -1%, DT40 TDP1 no CPT -2%, miR-21 FLuc -2% and uPA surface inh 4%.
Screening Cc1cc(C)c(NC(=O)COC(=O)/C=C/c2cccc(C(F)(F)F)c2)c(C)c1 returned TDP1 cell CPT 0%, DT40 TDP1 no CPT -5%, miR-21 FLuc 1%, uPA surface inh 2% and TDP1 block 1%.
Screening COc1ccc(C2CC(C(F)(F)F)n3nc(C(N)=O)c(Cl)c3N2)cc1OC (configuration not stated) returned TDP1 cell CPT -27%, DT40 TDP1 no CPT inconclusive, miR-21 FLuc -8%, uPA surface inh -2% and TDP1 block 3%.
For COc1ccc(C2CC(C(F)(F)F)n3nc(C(=O)NCc4c(C)nn(C)c4C)c(Cl)c3N2)cc1 (configuration not stated) the results were TDP1 cell CPT 1.3µM*, DT40 TDP1 no CPT 5.2µM*, miR-21 FLuc 22%, uPA surface inh -7% and TDP1 block 2%.
Screening Cc1c(CNC(=O)c2nn3c(c2Cl)NC(c2ccccc2)CC3C(F)(F)F)cnn1C (configuration not stated) returned TDP1 cell CPT inconclusive, DT40 TDP1 no CPT inconclusive, miR-21 FLuc 15%, uPA surface inh -2% and TDP1 block 4%.
Screening COc1ccc(C2CC(C(F)(F)F)n3nc(C(=O)N(C)Cc4cn(C)nc4C)c(Cl)c3N2)cc1 (configuration not stated) returned TDP1 cell CPT inconclusive, DT40 TDP1 no CPT 18µM*, miR-21 FLuc 0%, uPA surface inh -3% and TDP1 block 0%.
For O=CN1CCN(C(=O)c2cc3cc(Cl)ccc3[nH]2)CC1 the results were TDP1 cell CPT -28%, DT40 TDP1 no CPT inconclusive, miR-21 FLuc -4% and uPA surface inh -3%.
Cc1cccc(CSc2ncc(Cl)c(C(=O)Nc3sc4c(c3C#N)CCCC4)n2)c1 was read as TDP1 cell CPT 23µM*, DT40 TDP1 no CPT 5.8µM*, miR-21 FLuc -1% and TDP1 block 2%.
COC(=O)c1c(NC(=O)c2nc(SCc3cccc(C)c3)ncc2Cl)sc2c1CCCC2 was read as TDP1 cell CPT -20%, DT40 TDP1 no CPT -3%, miR-21 FLuc -2% and TDP1 block 0%.
For Cc1cccc(CSc2ncc(Cl)c(C(=O)Nc3sc4c(c3C(N)=O)CCCC4)n2)c1 the results were TDP1 cell CPT 23µM*, DT40 TDP1 no CPT 8.2µM*, miR-21 FLuc -3% and TDP1 block 9%.
